In US20220049021A1 (Gilead, published 2022):

Molecular target: T1, recombinant human C1q protein (Fitzgerald) (human)
T1 construct: also called human recombinant complement protein, C1q
Test: ELISA; test protein immobilised in serial dilution, recombinant human C1q added, anti-C1q-HRP

B1: human FLT3-ligand human IgG4 (S228P/L235E) fusion protein (SEQ ID NO:3) (Fc fusion)
chain: TQDCSFQHSPISSDFAVKIRELSDYLLQDYPVTVASNLQDEELCGGLWRLVLAQRWMERLKTVAGSKMQGLLERVNTEIHFVTKCAFQPPPSCLRFVQTNISRLLQETSEQLVALKPWITRQNFSRCLELQCQPDSSTLPPPWSPRPLEATAPTAPQESKYGPPCPPCPAPEFEGGPSVFLFPPKPKDTLMISRTPEVTCVVVDVSQEDPEVQFNWYVDGVEVHNAKTKPREEQFNSTYRVVSVLTVLHQDWLNGKEYKCKVSNKGLPSSIEKTISKAKGQPREPQVYTLPPSQEEMTKNQVSLTCLVKGFYPSDIAVEWESNGQPENNYKTTPPVLDSDGSFFLYSRLTVDKSRWQEGNVFSCSVMHEALHNHYTQKSLSLSLGK
notes: also called FLT3L ECD-hG4 S228P/L235E
B1: no binding (tested: 94 nM (top of the titration)).
